Data taken from patent US8309097 (VERENIGING VOOR CHRISTELIJK WETENSCHAPPELIJK ONDERWIJS, dated 2012).

Biological target: T1, ICAM-3 coated on fluorescent beads (UniProt P32942 30-485)
T1 sequence: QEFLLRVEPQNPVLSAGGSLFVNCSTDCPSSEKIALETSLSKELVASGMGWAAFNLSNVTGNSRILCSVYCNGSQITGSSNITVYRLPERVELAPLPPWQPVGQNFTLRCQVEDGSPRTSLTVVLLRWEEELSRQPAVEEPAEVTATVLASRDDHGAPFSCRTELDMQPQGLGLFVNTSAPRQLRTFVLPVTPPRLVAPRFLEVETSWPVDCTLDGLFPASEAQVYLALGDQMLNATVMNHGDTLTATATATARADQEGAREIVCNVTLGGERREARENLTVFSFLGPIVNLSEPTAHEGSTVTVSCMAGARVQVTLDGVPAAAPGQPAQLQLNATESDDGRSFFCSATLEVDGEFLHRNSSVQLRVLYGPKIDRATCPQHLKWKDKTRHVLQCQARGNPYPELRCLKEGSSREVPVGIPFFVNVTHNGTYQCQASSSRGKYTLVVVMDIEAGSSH
Assay: fluorescent bead adhesion assay, K562 transfectants

B1: DC-SIGN V351G mutant expressed by K562 cells (receptor)
chain: MSDSKEPRLQQLGLLEEEQLRGLGFRQTRGYKSLAGCLGHGPLVLQLLSFTLLAGLLVQVSKVPSSISQEQSRQDAIYQNLTQLKAAVGELSEKSKLQEIYQELTQLKAAVGELPEKSKLQEIYQELTRLKAAVGELPEKSKLQEIYQELTWLKAAVGELPEKSKMQEIYQELTRLKAAVGELPEKSKQQEIYQELTRLKAAVGELPEKSKQQEIYQELTRLKAAVGELPEKSKQQEIYQELTQLKAAVERLCHPCPWEWTFFQGNCYFMSNSQRNWHDSITACKEVGAQLVVIKSAEEQNFLQLQSSRSNRFTWMGLSDLNQEGTWQWVDGSPLLPSFKQYWNRGEPNNGGEEDCAEFSGNGWNDDKCNLAKFWICKKSAASCSRDEEQFLSPAPATPNPPPA
**Q.** Does B1 bind?
**A.** no binding
